Compound activity as filed in PubChem BioAssay.
ERp5 inh – inhibitors of human ERp5; 350,000 tested, 0.05% active; inhibition, % at 9.99 µM; ERp5 insulin aggregation, absorbance 650 nm, 90 min;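 active means mean replicate inhibition above about 25%, with every replicate also reaching it, limit read from the data, passing the limit was not always enough; inconclusive means only one of those two criteria met; inactive means neither criterion met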
Yeast UUG start – modulators of yeast start codon fidelity, primary screen, whole organism, S. cerevisiae, single point, plate reader. S. cerevisiae UUG-firefly luciferase reporter, luminescence/redox ratio. activity score, % at 18.7 µM. 350,000 tested, 0.13% active;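 active = replicate mean at a twofold rise or more, about +100% in these data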;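 also: firefly luciferase made from a UUG start codon reports start codon fidelity; reporter light over untreated wells divided by growth signal over untreated wells; some hits fall short of that in this replicate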
NR1D1 modulator – Rev-erb alpha (human) modulation. P20393. Rev-erbα–FITC-DNA binding, fluorescence polarization, 90 min. activity, % at 10 µM. 370,000 tested, 0.79% active;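 active means activity above about 14%, limit read from the data; passing the limit was not always enough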
SMARCA2 act – increases SMARCA2 function in MMTV reporter cells; MG213 cells, MMTV-luciferase reporter, dexamethasone, overnight; activation, % at 9.1 µM; 370,000 tested, 1% active; in the data active means activation above about 7.8%
PDI inh – blocks human protein disulfide isomerase activity. 350,000 tested, 0.052% active. PDI insulin aggregation turbidity, A650, 90 min. inhibition, % at 10 µM. AID 588391;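 active means mean inhibition across replicates of 30% or more, whatever share of single replicates reach that level; inconclusive means mean inhibition below 30% while every single replicate reaches 30%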
INS-1E GSIS act – primary screen for activators of insulin secretion dependent on glucose, INS-1E cells, GLuc reporter luminescence; INS-1E GLuc reporter insulin secretion, 2-3 h; activation, % at 16.6 µM; 370,000 tested, 0.61% active;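 active means lowest replicate activation of at least 40%, so every replicate reaches that level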
SMARCA2 conf – confirmation of SMARCA2 (BRM) function activators | 3,500 tested, 30% active | AID 652260 | activation, % at 9.1 µM | shares compounds with SMARCA2 act | MG213 cells, MMTV-luciferase with dexamethasone, luminescence, overnight; MG213 cells expressing E1A, Rb sequestered; DMSO wells 0%, reference activator 100%;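 active means activation above its plate's cutoff, the mean activation of tested wells plus 3 SD, cut at about 7.9% in these data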
VP16 Luc act – counter-screen for SMARCA2 activators: GAL4-VP16 luciferase reporter activation. activation, % at 9.1 µM. shares compounds with SMARCA2 act. HEK293 GAL4-VP16 pG5luc reporter, luciferase luminescence; scaled: DMSO wells 0%, SAHA wells 100%. 3,500 tested, 41% active;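 active means activation above the solvent-only control well mean plus 3 SD, averaged across control plates, cut at about 5.2% in these data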
Of the large screens only hits and unclear results are named; the others gave an inactive call (follow-up assays come after a bar, where they were run). The list is not random: actives were taken first. Their share in the collection is about 2.1%.

CCCS(=O)(=O)NC(=O)C1(C)CCCN(C(=O)c2nc(C)oc2C)C1 (stereo not drawn)	none (no result: ERp5 inh, NR1D1 modulator, SMARCA2 act, INS-1E GSIS act)
O=C(C[C@H]1CC[C@@H]2NC[C@H](O)COC[C@H]2O1)NCCN1CCCC1	none (no result: Yeast UUG start, NR1D1 modulator, SMARCA2 act, PDI inh)
CC(C)C#Cc1cnc2c(c1)C(=O)N([C@H](C)CO)C[C@H](C)[C@H](CN(C)C(=O)c1cccc(F)c1)O2	none (no result: NR1D1 modulator, SMARCA2 act, PDI inh)
CCNC(=O)C[C@@H]1CC[C@@H]2[C@H](COc3ccc(NC(=O)c4ccccc4)cc3C(=O)N2C)O1	none (no result: NR1D1 modulator, SMARCA2 act, PDI inh)
O=C(c1ccccc1)c1cnc(-c2ccc(Cl)cc2)s1	SMARCA2 act 14 (no result: ERp5 inh, INS-1E GSIS act) | SMARCA2 conf inactive | VP16 Luc act 6.9
COCCOC(=O)N1C(=O)[C@@]2(c3ccccc31)[C@H](C(=O)Nc1nc3ccccc3s1)[C@H]1C(=O)O[C@H](c3ccccc3)[C@H](c3ccccc3)N1[C@@H]2c1ccc(OCCO)cc1	none (no result: NR1D1 modulator, SMARCA2 act, PDI inh, INS-1E GSIS act)
C[C@@H]1CN([C@@H](C)CO)C(=O)c2cc(-c3ccc(C#N)cc3)cnc2O[C@H]1CN(C)CC1CCCCC1	none (no result: Yeast UUG start, NR1D1 modulator, SMARCA2 act, PDI inh)
C[C@@H]1CN([C@@H](C)CO)C(=O)c2cc(NS(=O)(=O)c3ccccc3)ccc2O[C@@H](C)CCCCO[C@@H]1CN(C)S(=O)(=O)c1ccccc1	none (no result: NR1D1 modulator, SMARCA2 act, PDI inh)
COc1ccc(NC(=O)N(C)C[C@@H]2OCCCC[C@H](C)Oc3ccc(NS(=O)(=O)c4ccc(Cl)cc4)cc3C(=O)N([C@H](C)CO)C[C@H]2C)cc1	none (no result: NR1D1 modulator, SMARCA2 act, PDI inh)
C(=N\Nc1nc2ccccc2[nH]1)/c1cccs1	none (no result: ERp5 inh, INS-1E GSIS act)
Cc1ccsc1/C=N/Nc1nc2ccccc2[nH]1	SMARCA2 act 12 | SMARCA2 conf 13 | VP16 Luc act 15
O=c1c(C=NCc2cccnc2)c(C(F)(F)F)[nH]n1-c1nc2ccccc2s1	SMARCA2 act 12 (no result: Yeast UUG start) | SMARCA2 conf 11 | VP16 Luc act 7.5
Cn1c(/C=C/c2ccc(Cl)cc2)nc2ccccc2c1=O	SMARCA2 act 8.7 | SMARCA2 conf inactive | VP16 Luc act 6.1
Cn1c(/C=C/c2ccccc2)nc2ccccc2c1=O	none
O=c1c(-c2ccco2)nc2ccccc2n1C(c1ccccc1)c1nc2ccccc2[nH]1 (stereo not drawn)	SMARCA2 act 11 (no result: Yeast UUG start, PDI inh) | SMARCA2 conf 8.9 | VP16 Luc act 5.6
O=c1c(-c2ccco2)nc2ccccc2n1C(c1ccccn1)c1nc2ccccc2[nH]1 (stereo not drawn)	none (no result: Yeast UUG start, PDI inh)
O=c1c(-c2ccco2)nc2ccccc2n1C(CCc1ccccc1)c1nc2ccccc2[nH]1 (stereo not drawn)	SMARCA2 act 11 (no result: Yeast UUG start, PDI inh) | SMARCA2 conf inactive | VP16 Luc act inactive
C[C@@H]1CCCCO[C@@H](CN(C)C(=O)C2CCCCC2)[C@@H](C)CN([C@@H](C)CO)C(=O)c2cc(NC(=O)Nc3cccc4ccccc34)ccc2O1	none (no result: NR1D1 modulator, SMARCA2 act, PDI inh)
COc1ccc(Cn2cc3c(-c4ccc(F)cc4)nnc-3c3cc(OC)c(OC)cc32)cc1	ERp5 inh inconclusive, SMARCA2 act 22 (no result: INS-1E GSIS act) | SMARCA2 conf 47 | VP16 Luc act inactive
Cn1nc2c3cc(F)ccc3n(Cc3ccc(F)cc3)cc-2c1=O	none (no result: Yeast UUG start)
Cc1noc(C)c1S(=O)(=O)Nc1ccc2c(c1)C(=O)N([C@@H](C)CO)C[C@H](C)[C@@H](CN(C)C(=O)C1CCCCC1)OCCCC[C@H](C)O2	none (no result: NR1D1 modulator, SMARCA2 act, PDI inh)
O=C(/C=C/Nc1cccc(C(F)(F)F)c1)c1ccco1	SMARCA2 act 8.7 (no result: Yeast UUG start) | SMARCA2 conf 9.2 | VP16 Luc act 8.5
O=C1CCCCC1Sc1nnc(Nc2ccccc2)s1 (stereo not drawn)	SMARCA2 act 8.8 | SMARCA2 conf inactive | VP16 Luc act 7.7
CN1CCN(c2nc(-c3ccccc3O)nc3ccccc23)CC1	none (no result: Yeast UUG start)
COc1cccc(-c2nc(N3CCN(C)CC3)c3ccccc3n2)c1O	SMARCA2 act 19 (no result: Yeast UUG start) | SMARCA2 conf 19 | VP16 Luc act inactive
O=c1c(Br)c(N2CCCCC2)cnn1-c1ccccc1	SMARCA2 act 8.7 (no result: Yeast UUG start) | SMARCA2 conf 9.8 | VP16 Luc act 9.0
c1ccc2oc(C3=NNC(=NC4CC4)SC3)cc2c1	SMARCA2 act 9.5 (no result: Yeast UUG start) | SMARCA2 conf inactive | VP16 Luc act 6.5
Cc1ccc(S(=O)(=O)Nc2ccc3c(c2)C(=O)N([C@H](C)CO)C[C@@H](C)[C@@H](CN(C)Cc2ccc4c(c2)OCO4)OCCCC[C@@H](C)O3)cc1	none (no result: NR1D1 modulator, SMARCA2 act, PDI inh)
CCOC(=O)C(=CNCC(=O)O)C(=O)OCC	SMARCA2 act 11 | SMARCA2 conf inactive | VP16 Luc act inactive
CCOC(=O)C(=CNc1ccc(C)cc1C)C(=O)OCC	none (no result: ERp5 inh, INS-1E GSIS act)
Cc1nc(NC(=O)C2CC2)sc1C(=O)Nc1ccccc1	none
Cc1ccccc1NC(=O)c1sc(NC(=O)C2CC2)nc1C	SMARCA2 act 8.4 | SMARCA2 conf inactive | VP16 Luc act inactive
Oc1cccc(/C=N/N=C/c2cccc(O)c2O)c1O	SMARCA2 act 12 | SMARCA2 conf 13 | VP16 Luc act 7.4
Cc1ccccc1N=Cc1cccc(O)c1O	none (no result: ERp5 inh, NR1D1 modulator, SMARCA2 act, INS-1E GSIS act)
C[C@H](CO)N1C[C@H](C)[C@H](CN(C)C(=O)Nc2ccc(F)cc2)Oc2ccc(NC(=O)CCCN(C)C)cc2C1=O	none (no result: NR1D1 modulator, SMARCA2 act, PDI inh)
O=c1c2c(nc3cc(-c4ccc(Cl)cc4)[nH]n13)CCS2	SMARCA2 act 13 (no result: ERp5 inh, Yeast UUG start) | SMARCA2 conf 8.6 | VP16 Luc act 7.6
O=c1c2c(nc3cc(-c4ccc(F)cc4)[nH]n13)CCCC2	none (no result: ERp5 inh)
O=c1c2c(nc3cc(-c4cccc(Cl)c4)[nH]n13)CCC2	SMARCA2 act 10 (no result: ERp5 inh, INS-1E GSIS act) | SMARCA2 conf 16 | VP16 Luc act 13
CCc1c(C)nc2cc(-c3ccc(Cl)cc3)[nH]n2c1=O	none
O=c1c2c(nc3cc(-c4cccc(F)c4)[nH]n13)CCC2	SMARCA2 act 12 | SMARCA2 conf 8.0 | VP16 Luc act 12
CCC(=O)N1C[C@H](C)[C@H](OC)CN(C)C(=O)c2ccc(NC(=O)Nc3ccc(Cl)cc3)cc2OC[C@@H]1C	none (no result: ERp5 inh, Yeast UUG start, NR1D1 modulator, SMARCA2 act, PDI inh)
C[C@H]1CN([C@@H](C)CO)C(=O)c2ccccc2-c2ccccc2CO[C@@H]1CN(C)C(=O)C1CC1	none (no result: Yeast UUG start, NR1D1 modulator, SMARCA2 act, PDI inh)
O=C(C[C@H]1C[C@@H]2c3cc(NC(=O)c4ccc5c(c4)OCO5)ccc3O[C@@H]2[C@H](CO)O1)NCCc1ccccc1	none (no result: Yeast UUG start, NR1D1 modulator, SMARCA2 act, PDI inh)
Cc1noc(C)c1S(=O)(=O)Nc1ccc2c(c1)C(=O)N([C@@H](C)CO)C[C@H](C)[C@H](CN(C)Cc1ccc3c(c1)OCO3)OCCCC[C@H](C)O2	none (no result: NR1D1 modulator, SMARCA2 act, PDI inh)
Cc1ccc(C(=O)CSc2nc(C)cc(=O)[nH]2)cc1	SMARCA2 act 8.2 (no result: ERp5 inh, INS-1E GSIS act) | SMARCA2 conf inactive | VP16 Luc act inactive
Cc1cc(=O)[nH]c(SCC(=O)c2ccc(O)c(O)c2)n1	none
